The results in this text go back to publication PMC8011926 (Journal of Medicinal Chemistry, 2020).

By UniProt entry, the sequences of proteins in these tests, tags left out.
UniProt P41146, whole entry: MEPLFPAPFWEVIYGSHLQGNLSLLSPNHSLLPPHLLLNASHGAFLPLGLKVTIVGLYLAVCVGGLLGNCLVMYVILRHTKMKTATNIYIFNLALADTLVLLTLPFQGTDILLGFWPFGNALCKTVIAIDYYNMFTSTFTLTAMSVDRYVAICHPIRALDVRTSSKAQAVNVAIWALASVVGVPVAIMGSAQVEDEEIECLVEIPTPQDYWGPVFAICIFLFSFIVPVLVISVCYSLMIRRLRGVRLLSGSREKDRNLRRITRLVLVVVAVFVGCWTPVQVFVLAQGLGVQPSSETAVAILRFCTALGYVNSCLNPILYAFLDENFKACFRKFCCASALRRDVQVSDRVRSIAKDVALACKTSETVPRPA

The test system of one experiment is NOP receptor. As to the kind of experiment: NOP bias factor, G protein vs β-arrestin 2 (Black–Leff operational model). Particulars: for bias factor (CL95%), NOP: ΔΔlog(τ/KA) G protein minus β-arrestin 2, N/OFQ(1–13)-NH2 as standard unbiased ligand, positive = toward G protein, mean of at least five experiments; for BIAS FACTOR: supplementary CSV (molecular formula strings), repeats Tables 1–7 without confidence limits.

The target of experiment [1] is NOP receptor (NOP-RLuc/Gβ1-RGFP) (Homo sapiens, UniProt P41146). Kind of experiment: NOP/G protein interaction, BRET assay in membranes. The format is biochemical. Particulars: Emax of ligand / Emax of N/OFQ(1–13)-NH2; mean ± sem of five experiments in duplicate. (Bioluminescence resonance energy transfer reports proximity on the nanometre scale.)
The target in experiment [2] is NOP receptor (NOP-RLuc/β-arrestin 2-RGFP) (Homo sapiens, UniProt P41146). Kind of experiment: NOP/β-arrestin 2 interaction, BRET assay in whole cells. The format is cell-based. Particulars: Emax of ligand / Emax of N/OFQ(1–13)-NH2; mean ± sem of five experiments in duplicate.

In the case of `C[C@H](NC(=O)CNC(=O)[C@@H](NC(=O)[C@H](Cc1ccccc1)NC(=O)CNC(=O)CNC(=O)[C@@H](N)Cc1ccccc1)[C@@H](C)O)C(=O)N[C@@H](CCCNC(=N)N)C(=O)N[C@@H](CCCCN)C(=O)N[C@@H](CO)C(=O)N[C@@H](C)C(=O)N[C@@H](CCCNC(=N)N)C(=O)N[C@@H](CCCCN)C(=O)N[C@@H](CSC1CC(=O)N(CCCC(=O)NCC(=O)N[C@@H](Cc2c[nH]cn2)C(=O)NCC(=O)N[C@@H](Cc2c[nH]cn2)C(=O)NCC(=O)N[C@@H](Cc2c[nH]cn2)C(=O)NCC(=O)N[C@@H](Cc2c[nH]cn2)C(=O)NCC(=O)N[C@@H](Cc2c[nH]cn2)C(=O)NCC(=O)N[C@@H](Cc2c[nH]cn2)C(N)=O)C1=O)C(N)=O` (stereo partly shown), the “bias factor (CL95%), NOP” value in the experiment on NOP receptor is on record as 0.17 (-0.29-0.62).
For `C[C@H](NC(=O)CCCN1C(=O)CC(SC[C@H](NC(=O)[C@H](CCCCN)NC(=O)[C@H](CCCNC(=N)N)NC(=O)[C@H](C)NC(=O)[C@H](CO)NC(=O)[C@H](CCCCN)NC(=O)[C@H](CCCNC(=N)N)NC(=O)[C@H](C)NC(=O)CNC(=O)[C@@H](NC(=O)[C@H](Cc2ccccc2)NC(=O)CNC(=O)CNC(=O)[C@@H](N)Cc2ccccc2)[C@@H](C)O)C(N)=O)C1=O)C(=O)N[C@@H](CC(=O)O)C(=O)N[C@@H](C)C(=O)N[C@@H](CC(=O)O)C(=O)N[C@@H](C)C(=O)N[C@@H](CC(=O)O)C(=O)N[C@@H](C)C(=O)N[C@@H](CC(=O)O)C(=O)N[C@@H](C)C(=O)N[C@@H](CC(=O)O)C(=O)N[C@@H](C)C(=O)N[C@@H](CC(=O)O)C(N)=O` (stereo partly shown), the “NOP/G protein α ± sem (intrinsic activity)” value (shortened to “NOP/G protein α ± sem”) in experiment [1] came to 0.97 ± 0.05.
With `C[C@H](NC(=O)CNC(=O)[C@@H](NC(=O)[C@H](Cc1ccccc1)NC(=O)CNC(=O)CNC(=O)[C@@H](N)Cc1ccccc1)[C@@H](C)O)C(=O)N[C@@H](CCCNC(=N)N)C(=O)N[C@@H](CCCCN)C(=O)N[C@@H](CO)C(=O)N[C@@H](C)C(=O)N[C@@H](CCCNC(=N)N)C(=O)N[C@@H](CCCCN)C(=O)N[C@@H](CSC1CC(=O)N(CCCC(=O)NCCOCCOCC(=O)NCCOCCOCC(=O)NCCOCCOCC(N)=O)C1=O)C(N)=O` (stereo partly shown), the “NOP/β-arrestin 2 α ± sem (intrinsic activity)” value in experiment [2] stood at 0.97 ± 0.03. Further, in the experiment on NOP receptor, the “BIAS FACTOR” value is -0.20 and the “bias factor (CL95%), NOP” value is listed as -0.20 (-0.65-0.25).
In the case of `C[C@H](NC(=O)CNC(=O)[C@@H](NC(=O)[C@H](Cc1ccccc1)NC(=O)CNC(=O)CNC(=O)[C@@H](N)Cc1ccccc1)[C@@H](C)O)C(=O)N[C@@H](CCCNC(=N)N)C(=O)N[C@@H](CCCCN)C(=O)N[C@@H](CO)C(=O)N[C@@H](C)C(=O)N[C@@H](CCCNC(=N)N)C(=O)N[C@@H](CCCCN)C(=O)N[C@@H](CSC1CC(=O)N(CCCC(=O)NCCCCCCCCCCC(=O)NCCCCCCCCCCC(=O)NCCCCCCCCCCC(N)=O)C1=O)C(N)=O` (stereo partly shown), the NOP/β-arrestin 2 α ± sem (intrinsic activity) in experiment [2] is 0.79 ± 0.04 ^a. The “NOP/G protein α ± sem” value in experiment [1] was determined as 0.96±0.01. Besides, in the experiment with NOP receptor, the “BIAS FACTOR” value worked out at 0.09 and the “bias factor (CL95%), NOP” value was 0.09 (-0.32-0.50).
For `C[C@H](NC(=O)CNC(=O)[C@@H](NC(=O)[C@H](Cc1ccccc1)NC(=O)CNC(=O)CNC(=O)[C@@H](N)Cc1ccccc1)[C@@H](C)O)C(=O)N[C@@H](CCCNC(=N)N)C(=O)N[C@@H](CCCCN)C(=O)N[C@@H](CO)C(=O)N[C@@H](C)C(=O)N[C@@H](CCCNC(=N)N)C(=O)N[C@@H](CCCCN)C(=O)N[C@@H](CSC1CC(=O)N(CCCC(=O)NCC(=O)N[C@@H](CC(=O)O)C(=O)NCC(=O)N[C@@H](CC(=O)O)C(=O)NCC(=O)N[C@@H](CC(=O)O)C(=O)NCC(=O)N[C@@H](CC(=O)O)C(=O)NCC(=O)N[C@@H](CC(=O)O)C(=O)NCC(=O)N[C@@H](CC(=O)O)C(N)=O)C1=O)C(N)=O` (stereo partly shown), the “NOP/G protein α ± sem” value in experiment [1] is 0.85 ± 0.07.
